“And” between values parts separate entries of the source, which are not always exact repeats. Identical values can stand only once. The list shows a part of the results, in another mix than the full data. The source made the active and inactive calls. Rule as the data show it: active = inhibition above about 37%; inactive = the rest.
Test: compounds displacing fluorescent DNA intercalator, primary screen, artefact control for HCV NS3 helicase inhibitor project, biochemical, FID fluorescence (AID 1845);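 also: 0% = vehicle and 100% = reference compound; higher means more ethidium bromide displaced from hairpin DNA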
Settings: DNA fluorescent intercalator displacement, at 7.9 µM, stronger effect = higher value

Row | Compound | inhibition
1 | Cc1ccc(NP(=O)(Oc2ccccc2)Oc2ccccc2)nc1 | inactive: -8.32%
2 | O=[N+]([O-])c1cc([N+](=O)[O-])c(CCNc2ccccc2)c([N+](=O)[O-])c1 | inactive: 0.24%
3 | CCc1nc2c(n1)c1c(non1O)c1c2no[n+]1[O-] | inactive: 1.97%
4 | CC(=O)N1C2C3N(C(C)=O)C1C1N(C(C)=O)C(C(N1C(C)=O)N3C(C)=O)N2C(C)=O | inactive: 0%
5 | O=[N+]([O-])c1cccc2n[nH]nc12 | inactive: -2.22%
6 | COc1ccc(C2=NCC(CBr)S2)cc1 (centres undefined) | inactive: 5.39%
7 | CC1CCN(C(=O)Oc2c(Cl)cc(Cl)c3cccnc23)CC1 | inactive: -28.9%
8 | CC(C)=N/N=C(\N)N[N+](=O)[O-] | inactive: -3.6%
9 | CN(C)C(=O)OCCc1n(C)cc[n+]1C | inactive: -0.08%
10 | CCN(/C(=N/P(=O)(N1CCOCC1)N1CCOCC1)N1CCOCC1)c1ccc(OC)cc1 | inactive: -32.9%
11 | Nc1ccc([As](=O)(O)c2ccc(N)cc2)cc1 | inactive: 0.15%
12 | C[N+]1=C2C=CC=CC=C2SC12C([N+](=O)[O-])=CC([N+](=O)[O-])=C[C-]2[N+](=O)[O-] (centres undefined) | inactive: -4.24%
13 | O=C(Nc1cc([As](=O)(O)O)ccc1O)c1ccccc1 | inactive: 1.41%
14 | O=C(O)CNc1ccc([As](=O)(O)O)cc1 | inactive: -0.18%
15 | O=[N+]([O-])c1cccc(NC2=NCC(CBr)S2)c1 (centres undefined) | inactive: 4.34%
16 | O=[N+]([O-])c1ncn(CCn2ncnc2[N+](=O)[O-])n1 | inactive: 12.7%
17 | CC(C)(C)C(=O)NC(Sc1ccncn1)C(Cl)(Cl)Cl (centres undefined) | inactive: -2.69%
18 | CCOP(=O)(Nc1ccccc1)OCC | inactive: -0.12% and inactive: -0.94%
19 | Cc1cc(SC(NC(=O)c2ccc(F)cc2)C(Cl)(Cl)Cl)ncn1 (centres undefined) | inactive: -0.1%
20 | Cc1ccc(NP(=O)(Oc2ccccc2F)Oc2ccccc2F)nc1 | inactive: -3.95%
21 | O=P(Nc1nc2ccc(Cl)cc2s1)(c1ccccc1)c1ccccc1 | inactive: -25.4%
22 | O=C(O)c1ccccc1[As](=O)(O)O | inactive: -3.4%

Row | Compound | inhibition
23 | CC(=O)Nc1ccc([As](=O)(O)O)cc1 | inactive: -0.3%
24 | Nc1cccc2ccc([As](=O)(O)O)cc12 | inactive: -6.72%
25 | CCN(N=Nc1nonc1N)c1nonc1N | inactive: 3.03%
26 | O=[N+]([O-])c1cc([N+](=O)[O-])c(CCN2CCOCC2)c([N+](=O)[O-])c1 | inactive: 5.06%
27 | Clc1ccc(Cl)c(NC2=NCC(CBr)S2)c1 (centres undefined) | inactive: 3.19%
28 | CN1CCCC(OC(=O)C(c2ccccc2)c2ccccc2)C1 (centres undefined) | inactive: 6.6%
29 | COc1ccccc1OP(=O)(Nc1ccc(C)cn1)Oc1ccccc1OC | inactive: -3.85%
30 | Cc1ccc(OP(=O)(Nc2nccs2)Oc2ccc(C)cc2)cc1 | inactive: -30.6%
31 | Cc1ccc(N/C(=N/P(=O)(N2CCOCC2)N2CCOCC2)N2CCOCC2)cc1 | inactive: 0.96%
32 | NC(=O)c1cc([N+](=O)[O-])cc([N+](=O)[O-])c1N | inactive: -6.51%
33 | Oc1ccccc1CNc1ccccn1 | inactive: -0.39%
34 | Cc1c2non([O-])c-2c(C)[n+](=O)[n+]1[O-] | inactive: -2.65%
35 | O=C(NC(Sc1ccncn1)C(Cl)(Cl)Cl)c1ccccc1 (centres undefined) | inactive: -6.8%
36 | CC(C)CC(=O)NC(Sc1ccc(Cl)cc1)C(Cl)(Cl)Cl (centres undefined) | inactive: -5.67%
37 | Nc1cc(N)c2nonc2c1[N+](=O)[O-] | inactive: 2.51%
38 | CC(C)(C)C(=O)NC(Sc1ccccc1)C(Cl)(Cl)Cl (centres undefined) | inactive: -9.42%
39 | O=P1(Nc2nc3ccc(Cl)cc3s2)COc2ccccc2O1 (centres undefined) | inactive: -0.04%
40 | CCOc1ccc(C2=NCC(CBr)S2)cc1 (centres undefined) | inactive: 7.68%
41 | CC(=O)Nc1ccc([As](=O)(O)O)c(O)c1 | inactive: 2.01%
42 | CC(=O)Nc1ccc(Oc2c([N+](=O)[O-])cc([N+](=O)[O-])cc2[N+](=O)[O-])cc1 | inactive: -0.3%
43 | CC(=O)c1ccc(N2CC2c2ccncc2)cc1 (centres undefined) | inactive: -5.53%
44 | c1ccc(-c2nn[nH]n2)c(-c2nn[nH]n2)c1 | inactive: 3.72%

Row | Compound | inhibition
45 | Cc1ccc(NP(=O)(Oc2cccc(C)c2)Oc2cccc(C)c2)nc1 | inactive: 5.9%
46 | CCOC(=O)NC(Sc1ccccc1)C(Cl)(Cl)Cl (centres undefined) | inactive: 1.54%
47 | O=C(NC1CCS(=O)(=O)C1)NP(=S)(Oc1ccccc1)Oc1ccccc1 (centres undefined) | inactive: 1.3%
48 | CCNC(=S)/N=C(\N)N[N+](=O)[O-] | inactive: -1.35%
49 | Cc1ccccc1OP(=O)(Nc1ccccn1)Oc1ccccc1C | inactive: -30.9%
50 | CN(C)C(=O)Oc1noc2ccccc12 | inactive: -5.5%
51 | O=c1c2cc([N+](=O)[O-])ccc2[nH]c2c([N+](=O)[O-])cc([N+](=O)[O-])cc12 | inactive: 17.5%
52 | O=C(OC1CN2CCC1CC2)c1ccccc1 (centres undefined) | inactive: 2.36%
53 | CCC(=O)N1C2C3N(C(=O)CC)C1C1N(C(=O)CC)C(C(N1C(=O)CC)N3C(=O)CC)N2C(=O)CC | inactive: -3.15%
54 | COC(=O)c1cc2c(s1)N=C(c1ccccc1)N(C)P2(=O)N1CCOCC1 (centres undefined) | inactive: -5.69%
55 | CC(=O)NC(SC(=S)N(CC(C)C)CC(C)C)C(Cl)(Cl)Cl (centres undefined) | inactive: -7.27%
56 | Cc1ccc(OP(=O)(Nc2ccccn2)Oc2ccc(C)cc2)cc1 | inactive: -28.3%
57 | O=P(Nc1nc2ccccc2s1)(c1ccccc1)c1ccccc1 | inactive: -16.8%
58 | CN(C)C1(CNC(=O)c2ccc(Cl)c(S(N)(=O)=O)c2)CCCCC1 | inactive: -4.52%
59 | O=P(Nc1ccccn1)(c1ccc(Br)cc1)c1ccc(Br)cc1 | inactive: -11.6%
60 | O=C(OC1CN2CCC1CC2)c1cccc(Cl)c1 (centres undefined) | inactive: 6.78%
61 | Nc1ccc([As](=O)(O)c2ccc([N+](=O)[O-])cc2)cc1 | inactive: -3.93%
62 | C(Cc1nn[nH]n1)Cc1nn[nH]n1 | inactive: 3.15%
63 | O=[As](O)(c1ccccc1)c1ccc(O)cc1 | inactive: -1.24%
64 | CC(=O)NC(SC(=S)N(C)C)C(Cl)(Cl)Cl (centres undefined) | inactive: 0.94%
